# Ab-14 heavy chain CDR variants: yeast mating affinities

The target is the same throughout: PDVDLGDISGINAS, from the HR2 region of SARS-CoV-2 spike.

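The library (AAYL49) carries one to three amino acid substitutions per variant, with no insertions or deletions. The assay is AlphaSeq: two haploid yeast populations carry antibody and antigen on their surface. The frequency of each diploid, read from paired DNA barcodes, reflects how well the two displayed proteins bind. Each replicate has its own calibration line, from reference interactions of the BCL2 family. The assay was run in three technical replicates.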

Parent: Ab-14, a human scFv built as VH, three GGGGS repeats, VL. Only the CDRs of the heavy chain vary.
VH: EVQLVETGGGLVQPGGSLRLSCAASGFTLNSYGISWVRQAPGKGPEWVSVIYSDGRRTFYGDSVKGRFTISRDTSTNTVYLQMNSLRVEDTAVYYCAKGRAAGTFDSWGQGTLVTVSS
VL: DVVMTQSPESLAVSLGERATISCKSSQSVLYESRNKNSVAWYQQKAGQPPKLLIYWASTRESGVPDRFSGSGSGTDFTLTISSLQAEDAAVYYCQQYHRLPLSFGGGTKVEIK

Changes read parent residue, position, new residue, counted from the first residue of the VH shown.
The Kd shown is the geometric mean over detected replicates; a lower Kd is a better binder.
"not detected" means that the variant was in the library but no mating with the target was seen in any replicate; the authors take this as a sign of poor binding, and no number exists.
Three control strains display no target. For library AAYL49, 15% of the pairings with them gave a signal, with a median of 11 µM and one signal in twenty below 680 nM, so weak values seen in few replicates may be background.

changes,Kd (apparent),seen in
V50W G103A F105S,390 µM,1 of 3
S35P G55E F59Q,not detected,0 of 3
S35P G61L T104A,17 µM,2 of 3
F27W Y32E D54K,not detected,0 of 3
L29D S31I S63G,410 µM,2 of 3
Y32I V50W R100M,not detected,0 of 3
L29H Y52D F105P,48 µM,3 of 3
T28E G55Y T104A,not detected,0 of 3
S53G G55R T58K,not detected,0 of 3
S35T Y60Q R100T,15 µM,2 of 3
S53F S63V S107C,110 µM,2 of 3
I51N T58R G103N,not detected,0 of 3
L29N G55R K65L,100 µM,3 of 3
N30Y I51G K65G,19 µM,1 of 3
T58K F59A G103S,170 nM,3 of 3
F27K D54F R100N,not detected,0 of 3
D54I V64H K65F,23 µM,3 of 3
G26C D62L D106R,not detected,0 of 3
S31K R100K A102L,1.2 µM,1 of 3
G55R T104A,24 µM,1 of 3
I51L R57Y G99R,not detected,0 of 3
S53P K65A A101I,12 nM,3 of 3
S31R G99D T104S,18 nM,3 of 3
G99T A102H D106C,340 nM,3 of 3
S35P G61E K65E,not detected,0 of 3
S53L F59M R100K,not detected,0 of 3
S31I I51M F105G,not detected,0 of 3
F27Y S53A F105Q,51 nM,3 of 3
I34F Y52H G103W,not detected,0 of 3
N30K S31G A101V,920 nM,3 of 3
F27H G33P Y52H,24 µM,2 of 3
Y60N G61K D62R,not detected,0 of 3
I51E R57L G99K,30 µM,1 of 3
S35T G61I A101G,not detected,0 of 3
S35A T104M D106H,not detected,0 of 3
L29I R57I R100E,not detected,0 of 3
T28A L29T Y32C,24 nM,3 of 3
R57L G61S F105P,not detected,0 of 3
I34Q V64W D106S,not detected,0 of 3
Y52A R100K F105C,not detected,0 of 3
S31L I34L Y52C,330 µM,2 of 3
T28L D54N F105C,8.8 µM,1 of 3
F27E Y32S R57G,not detected,0 of 3
V50C A101K D106K,not detected,0 of 3
N30K G33K S35L,650 µM,1 of 3
S63V A101V F105V,16 µM,1 of 3
F27T T28H Y52P,not detected,0 of 3
R57A F59H T104N,not detected,0 of 3
N30G R100V A102S,120 nM,3 of 3
S31R G103K,not detected,0 of 3
T28A Y52I F105K,not detected,0 of 3
T28D S53P V64F,5.0 nM,3 of 3
T28A Y52S K65D,16 µM,2 of 3
L29H G33F S53C,not detected,0 of 3
N30L I51Y K65S,not detected,0 of 3
K65S G103A F105N,600 nM,3 of 3
S31E T104F S107K,42 nM,3 of 3
I34R D54T G55K,not detected,0 of 3

Values reported by Engelhart et al. 2022, doi:10.1038/s41597-022-01779-4 (FLAb copy).